Measurements reported in patent US20240245770A1, “COMPOSITIONS AND METHODS FOR TREATING NEUROMUSCULAR DISORDERS” (The Regents of the University of California, priority 2019, published 2024).

Columns and labels:
[1] = tested on: NK cells with autologous or allogeneic monocytes; test: NK ELISA, IFN-γ secretion by NK cells cultured with monocytes; format: cell-based, human
Protocol: ALS patient's NK cells increase secretion of IFN-g with both autologous and allogeneic monocytes indicating potential priming of the NK cells (FIG. 15). IFN-g release of NK with different donor monocytes. Purified NK cells were treated with the combination of IL-2 and anti-CD16 mAb (3 μg/ml), and cultured with autologous and allogeneic monocytes at (1:1 NK:monocyte ratios). After an overnight treatment at 37° C., the supernatants were removed and IFN-g secretion was measured using ELISA.
(§1) NK ELISA. Purified NK cells were treated with IL-2 (1000 U/mL) or treated with the combination of IL-2 and anti-CD16 mAb (3 μg/ml) or IL-2+sAJ2 (Cells:sAJ2 1:20) and cultured with autologous monocytes at (1:1 NK:monocyte ratios). After an overnight treatment at 37° C., the supernatants were harvested and the levels of IFN-γ secretion were measured using ELISA (Table 30).
as §1, with “allogeneic” for “autologous”, “31).” for “30).”
as §1, with “Elisa.” for “ELISA.”, “40).” for “30).”

[2] = tested on: oral squamous carcinoma stem cells (OSCSCs); test: 51Cr release cytotoxicity of NK cells cultured with autologous or allogeneic monocytes; format: cell-based, human
Protocol: (§2) Increased cytotoxicity of NK cells cultured with autologous or allogeneic monocytes by ALS patient (FIG. 11). NK with different donor monocytes. Purified NK cells were treated with the combination of IL-2 and anti-CD16 mAb (3 μg/ml), and cultured with autologous and allogeneic monocytes at (1:1 NK:monocyte ratios). After an overnight incubation, the NK cell mediated cytotoxicity was determined by the standard 4-hour chromium release assay using oral squamous carcinoma stem cells (OSCSCs) as targets. The lytic units 30/10^6 cells were determined using inverse number of NK cells required to lyse 30% of the target cells×100.
as §2, with “Purified” for “Increased cytotoxicity of NK cells cultured with autologous or allogeneic monocytes by ALS patient (FIG. 11). NK with different donor monocytes. Purified”, “autologous” for “autologous and allogeneic”

**Q.** How did the “IFN-γ secretion (ELISA)” value ([1]; H80 DM NK (1:5) + H83 JC monocyte (1:5)) turn out when Recombinant human IL-2 was run?
**A.** Its value is 155.05.

**Q.** What about the “IFN-γ secretion (ELISA)” value ([1]; H80 DM NK + auto monocyte, 1:5 dilution) of the same substance?
**A.** Its value is 430.49.

**Q.** And the “IFN-γ secretion (ELISA)” value ([1]; H81 JC (ALS) NK + auto monocyte, 1:5 dilution)?
**A.** Its value is 166.13.

**Q.** And the “IFN-γ secretion (ELISA)” value ([1]; H81 JC NK (1:5) + P83 SS monocyte)?
**A.** Its value is 238.57.

**Q.** And the “IFN-γ secretion (ELISA)” value ([1]; H82 TC (healthy twin) NK + auto monocyte, 1:5 dilution)?
**A.** The value was 224.60.

**Q.** And the “IFN-γ secretion (ELISA)” value ([1]; H82 TC NK (1:5) + H83 JC monocyte (1:5))?
**A.** The value was 79.89.

**Q.** And the “IFN-γ secretion (ELISA)” value ([1]; H82 TC NK (1:5) + P83 SS monocyte)?
**A.** Its value is 107.03.

**Q.** And the “IFN-γ secretion (ELISA)” value ([1]; H83 JC NK (1:5) + H80 DM monocyte)?
**A.** The value was 163.40.

**Q.** And the “IFN-γ secretion (ELISA)” value ([1]; H83 JC NK (1:5) + H82 TC monocyte)?
**A.** Its value is 80.93.

**Q.** And the “IFN-γ secretion (ELISA)” value ([1]; H84 JC NK + auto monocyte, 1:8 dilution)?
**A.** The value was 862.26.

**Q.** And the “IFN-γ secretion (ELISA)” value ([1]; H84 JC monocyte alone, 1:8 dilution)?
**A.** Its value is 571.73.

**Q.** What about the “IFN-γ secretion (ELISA)” value ([1]; H85 TC NK + auto monocyte, 1:8 dilution) of the same substance?
**A.** Its value is 322.96.

**Q.** And the “IFN-γ secretion (ELISA)” value ([1]; H85 TC monocyte alone, 1:8 dilution)?
**A.** Its value is 616.97.

**Q.** What about the “IFN-γ secretion (ELISA)” value ([1]; P82 SS NK + H81 JC monocyte (1:5)) of the same substance?
**A.** Its value is 123.73.

**Q.** What about the “IFN-γ secretion (ELISA)” value ([1]; P82 SS NK + H82 TC monocyte (1:5)) of the same substance?
**A.** Its value is 396.21.

**Q.** And the “IFN-γ secretion (ELISA)” value ([1]; P82 SS NK + auto monocyte, 1:5 dilution)?
**A.** Its value is 180.13.

**Q.** What about the NK cytotoxicity ([2]; H84 JC NK + allo monocyte) of the same substance?
**A.** The NK cytotoxicity was 195.55 lytic units 30/10^6 cells.

**Q.** And the NK cytotoxicity ([2]; H84 JC NK + auto monocyte)?
**A.** Its NK cytotoxicity is 169.51 lytic units 30/10^6 cells.

**Q.** And the NK cytotoxicity ([2]; H85 TC NK + allo monocyte)?
**A.** The NK cytotoxicity was 127.14 lytic units 30/10^6 cells.

**Q.** What about the NK cytotoxicity ([2]; H85 TC NK + auto monocyte) of the same substance?
**A.** The NK cytotoxicity was 168.11 lytic units 30/10^6 cells.

**Q.** What about the “NK cell mediated cytotoxicity” value ([2]; Table 9, H51 NK + H51 monocyte, row 2.5) of the same substance?
**A.** The value was 57.9.

**Q.** And the “NK cell mediated cytotoxicity” value ([2]; Table 9, H51 NK + H51 monocyte, row 5)?
**A.** Its value is 87.0.

**Q.** What about the “NK cell mediated cytotoxicity” value ([2]; Table 12, H53 NK + H51 JC monocyte, row 2.5) of the same substance?
**A.** Its value is 48.1.

**Q.** What about the “NK cell mediated cytotoxicity” value ([2]; Table 12, H53 NK + H51 JC monocyte, row 5) of the same substance?
**A.** The value was 68.1.

**Q.** What about the “NK cell mediated cytotoxicity” value ([2]; Table 13, H53 NK + H52 TC monocyte, row 2.5) of the same substance?
**A.** Its value is 44.2.

**Q.** What about the “NK cell mediated cytotoxicity” value ([2]; Table 13, H53 NK + H52 TC monocyte, row 5) of the same substance?
**A.** Its value is 62.7.
